Assay results: patent publication US12617776B2, “Stable salt and crystal forms of 2-[3-({1-[2-(dimethylamino)ethyl]-2-(2,2-dimethylpropyl)-1H-1,3-benzodiazol-5-yl}sulfonyl)azetidin-1-yl]ethan-1-ol” (priority 2020, dated 2026)
Entries after “also recorded” stand apart in the source; their conditions may differ. Counter-ions that a name gives are not always drawn. Like-named read-outs stand apart in the source and are kept apart here.

Key:
[1] = 7 days at 25° C./60% RH, 40° C./75% RH and 70° C./75% RH
[2] = Water activity experiments of AAT-730 HCl salt; format: physicochemical; details: Aw at most 0.2
Protocol: Water activity experiments were carried out to determine if the water activity of the solvent influenced which form was isolated. […] A mixture was isolated at Aw at most 0.4 and this may be close to the critical water activity.

[3] = Protocol: The aliquot volumes were typically 25-100 μL.
From the infrared (IR) transmission data of the sample vials, dissolution and precipitation events were recorded as the point of complete transmission of IR and the onset of turbidity by IR respectively.
Samples were held at ambient temperature for 18 hours to maximize the chance of precipitation. Any recoverable solids were analyzed by XRPD.

[4] = 7 days at 25° C./60% RH, 40° C./75% RH and 70° C./75% RH; remark: listed apart in the source

SMILES | 1H NMR analysis of post-stressed samples (chemical stability) [1] | XRPD of post-stressed samples (physical form) [1] | stability in water activity experiments [2] | (A) - Solvents ([3]; solvent systems in which the salt was soluble in <=50 volumes (>=20 mg/mL) at ambient temperature) | (C) - Anti-solvents ([3]; solvent systems: not soluble in 50 volumes at all temperatures studied) | 1H NMR analysis of post-stressed samples (chemical stability) [4]
CN(C)CCn1c(CC(C)(C)C)nc2cc(S(=O)(=O)C3CN(CCO)C3)ccc21 [AAT-730 HCl salt Pattern 2] | no change; also recorded: chemically stable | remained as Pattern 2; also recorded: No change in physical form | most stable form; also recorded: stable | – | – | –
CN(C)CCn1c(CC(C)(C)C)nc2cc(S(=O)(=O)C3CN(CCO)C3)ccc21 [AAT-730 HCl salt, HCl salt of 2-[3-({1-[2-(dimethylamino)ethyl]-2-(2,2-dimethylpropyl)-1H-1,3-benzodiazol-5-yl}sulfonyl)azetidin-1-yl]ethan-1-ol] | – | – | – | DMSO/water; also recorded: EtOH/water (50:50) | ACN and DCM and EtOH and THF and acetone and acetone/water | no change; also recorded: chemically stable
